Values of other authors, collected in patent US7332523B2, “TNP-470 polymer conjugates and use thereof” (Children's Medical Center Corporation, priority 2002, dated 2008).

Conditions: clinical pharmacokinetics; cited from earlier work

## HPMA copolymer-doxorubicin [PK1]
  t1/2α: 1.8 h
